# According to patent US7144452B2, “Ink jet black ink, ink set, ink jet recording method, ink cartridge, recording unit, and ink jet recording apparatus” (Canon Kabushiki Kaisha, priority 2004, dated 2006):
# Assay: Relative permittivity of water-soluble organic solvent (LCR meter)
# Conditions: room temperature of 20° C.
smiles,measurement,value
CCCCOCCOCCO,Relative permittivity (measurement frequency: 1 MHz),10.3
